Data on one molecule can be found in ChEMBL document CHEMBL4196036, “Benzomorphan scaffold for opioid analgesics and pharmacological tools development: A comprehensive review” (Eur J Med Chem, 2018).

Sequences of proteins named here, by UniProt entry; tags and fusion partners are left off. A change or cut given only in a name is not applied to a line headed by its entry.
UniProt P41145: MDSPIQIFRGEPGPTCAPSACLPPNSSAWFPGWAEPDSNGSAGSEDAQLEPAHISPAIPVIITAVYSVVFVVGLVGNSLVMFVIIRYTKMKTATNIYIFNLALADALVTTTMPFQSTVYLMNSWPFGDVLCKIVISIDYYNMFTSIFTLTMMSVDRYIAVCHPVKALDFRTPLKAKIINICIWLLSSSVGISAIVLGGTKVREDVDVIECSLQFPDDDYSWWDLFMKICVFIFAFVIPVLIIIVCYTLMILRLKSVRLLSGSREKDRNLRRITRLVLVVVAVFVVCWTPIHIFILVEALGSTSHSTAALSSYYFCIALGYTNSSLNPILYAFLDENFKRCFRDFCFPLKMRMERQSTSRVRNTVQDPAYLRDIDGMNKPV

The target in this test is Kappa-type opioid receptor (Homo sapiens, UniProt P41145). In words: Agonist activity at human KOR expressed in CHO cell membranes assessed as stimulation of [35S]GTPgammaS binding after 60 mins by scintillation counting method. Format: functional, cell-based.

A word on the EC50: it is the concentration at which the effect is half-maximal.

On to `CC1C2Cc3ccc(C(N)=O)cc3C1(C)CCN2CC1CC1` (racemic), for which the EC50 amounted to 8.8 nM.
